Like-named read-outs stand apart in the source and are kept apart here.
T1: IL17A dimer (Homo sapiens, UniProt Q16552)
T1 sequence (Q16552 24-155): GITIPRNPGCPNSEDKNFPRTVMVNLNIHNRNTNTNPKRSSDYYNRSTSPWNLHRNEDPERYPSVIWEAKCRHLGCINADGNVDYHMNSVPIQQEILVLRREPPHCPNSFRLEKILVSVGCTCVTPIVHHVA

T2: hIL17-A / IL17A dimer (Homo sapiens, UniProt Q16552)
T2 sequence (Q16552 24-155): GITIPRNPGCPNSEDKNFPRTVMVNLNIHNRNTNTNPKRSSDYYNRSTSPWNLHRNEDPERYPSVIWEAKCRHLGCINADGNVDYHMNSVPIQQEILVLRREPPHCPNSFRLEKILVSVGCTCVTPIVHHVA

T3: human IL-17A dimer (human, UniProt Q16552 24-155)
T3 construct: also called hIL17-A
T3 sequence (looked up): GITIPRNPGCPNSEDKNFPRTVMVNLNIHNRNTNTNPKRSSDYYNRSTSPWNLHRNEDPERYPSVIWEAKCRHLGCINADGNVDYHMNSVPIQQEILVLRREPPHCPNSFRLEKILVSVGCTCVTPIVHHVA


Experiments:
[1] = molecular target: T1, IL17A dimer; test: Human fluorescence polarisation (FP) competition assay; assay type: binding
Method: (§1) Affinity determination by fluorescence polarization (FP) competition. Bicycles were screened to determine affinity (Ki) in a fluorescence polarisation assay where in competition with a bicycle labelled with fluorescein (referred to as tracer) with a known affinity for IL-17A. Peptides were diluted to an appropriate concentration in assay buffer (PBS+0.01% Tween20, adjusted to pH7.4 using NaOH (1M)) with a maximum of 1% DMSO, then serially diluted 1 in 2 into assay buffer. Into black 384-well low volume plates, 5 µL of diluted peptide was added to the plate followed by 10 μL of IL-17A (75 nM) then 10 μL tracer added to a final concentration of 1 nM. Measurements were conducted on a BMG PHERAstar FS equipped with an “FP 485 520 520” optic module which excites at 485 nm and detects parallel and perpendicular emission at 520 nm. The PHERAstar FS was set at 25° C. with 200 flashes per well and a positioning delay of 0.1 second, with each well measured at 5 to 10 minute intervals for 60 minutes. The gain used for measurements was determined at the point of experiment on a tracer alone well. Data analysis was performed in Dotmatics where mP values were fit to the Cheng Prusoff equation in order to generate a Ki value.
(§2) Selected peptide ligands of the invention were tested in the above mentioned human FP competition assay and the results are shown in Table 3: […]

[2] = molecular target: T2, hIL17-A / IL17A dimer; test: IL-17A human binding assay; conditions: Table 1, human; read-out: hIL17-A Binding Kd
Method: IL-17A, IL-17E and IL-17F binding was determined using an analogous method to that described in WO 2011/141823.
Selected peptide ligands of the invention were tested in the above mentioned IL-17A, IL-17E and IL-17F human and mouse binding assays and the results are shown in Tables 1 and 2: […]

[3] = molecular target: T3, human IL-17A dimer; test: FP competition, competitor: tracer BCY2311
Method: as §1, §2

[4] = molecular target: T3, human IL-17A dimer; test: FP competition, competitor: tracer BCY2315
Method: as §1, §2

[5] = molecular target: T3, human IL-17A dimer; test: FP competition, competitor: tracer BCY2311; Ki Mean column, n=2
Method: as §1, §2

[6] = tracer BCY2315, read-out: Ki Result
[7] = tracer BCY2311, read-out: Ki Result
[8] = tracer BCY2315, column Ki Mean, read-out: Ki Mean
[9] = tracer BCY2311, column Ki Mean, read-out: Ki Mean

Row | Molecule | Ki [1, 7] | Ki [3] | further results
1 | Ac-(SEQ ID NO: 39) [BCY2244] | – | – | Ki [1, 6]: 1800 nM
2 | A-(SEQ ID NO: 3)-A [BCY2231] | 1500 nM | – | –
3 | Ac-(SEQ ID NO: 38) [BCY2243] | 30.4 nM | – | Ki [1, 8]: 39.8 nM; Ki [1, 6]: 40.5 ± 10.6 nM
4 | Ac-(SEQ ID NO: 37) [BCY2241] | 278 nM | – | –
5 | Ac-(SEQ ID NO: 41) [BCY2248] | 241 nM | – | Ki [1, 6]: 60.6 nM
6 | Ac-(SEQ ID NO: 49) [BCY2294] | 1030 ± 221 nM | – | Ki [1, 9]: 1020 nM
7 | Ac-(SEQ ID NO: 43) [BCY2252] | – | – | Ki [1, 8]: 1690 nM; Ki [1, 6]: 1750 ± 882 nM
8 | A-(SEQ ID NO: 12)-A [BCY2274] | 51.5 ± 15.4 nM | – | Ki [1, 9]: 50.8 nM; Ki [1, 6]: 35.8 nM
9 | Ac-(SEQ ID NO: 53) [BCY2304] | 366 ± 63.7 nM | – | Ki [1, 9]: 365 nM
10 | Ac-(SEQ ID NO: 33) [BCY2237] | 110 nM | – | –
11 | A-(SEQ ID NO: 32)-A [BCY2235] | 134 ± 38.3 nM | – | Ki [1, 9]: 130 nM
12 | Ac-(SEQ ID NO: 52) [BCY2302] | 1920 ± 755 nM | – | Ki [1, 9]: 1880 nM
13 | Ac-(SEQ ID NO: 35) [BCY2239] | 33.2 ± 7.45 nM | – | Ki [1, 9]: 32.3 nM
14 | Ac-(SEQ ID NO: 50) [BCY2295] | 694 ± 24.5 nM | – | Ki [1, 9]: 694 nM
15 | Ac-(SEQ ID NO: 42) [BCY2250] | – | – | Ki [1, 6]: 113 nM
16 | A-(SEQ ID NO: 4)-A [BCY2230] | 633 nM | – | –
17 | A-(SEQ ID NO: 2)-A [BCY2265] | 822 ± 701 nM | – | Kd [2]: 336 nM; Ki [1, 9]: 741 nM
18 | Ac-(SEQ ID NO: 51) [BCY2299] | 3350 ± 98 nM | – | Ki [1, 9]: 3350 nM
19 | A-(SEQ ID NO: 8)-A [BCY2269] | 78.7 ± 13.2 nM | – | Ki [1, 9]: 78.4 nM

Row | Molecule | Ki [1, 7] | Ki [3] | further results
20 | Ac-(SEQ ID NO: 34) [BCY2238] | 62.9 nM | – | –
21 | Ac-(SEQ ID NO: 40) [BCY2246] | – | – | Ki [1, 8]: 546 nM; Ki [1, 6]: 550 ± 130 nM
22 | ACETDLDLCAFLNIPCA (Ci, Cii and Ciii cyclised with TBMB, Bicyclic peptide) [BCY2278] | – | 547 nM | –
23 | ACDTDPELCSFLGIACA (Ci, Cii and Ciii cyclised with TBMB, Bicyclic peptide) [BCY2275] | – | 38.4 nM | Ki [4]: 29.1 nM; Ki [5]: 38.3 nM
24 | ACEGDPELCRFLGLECA (Ci, Cii and Ciii cyclised with TBMB, Bicyclic peptide) [BCY2276] | – | 46.1 nM | Ki [4]: 24.4 nM; Ki [5]: 45.4 nM
25 | ACPDDELYCFLTGFKCA (Ci, Cii and Ciii cyclised with TBMB, Bicyclic peptide) [BCY2266] | – | 165 nM | –
26 | ACDDELYCFLNASCA (Ci, Cii and Ciii cyclised with TBMB, Bicyclic peptide) [BCY2292] | – | 571 nM | –
27 | ACPENELYCFLSSQQCA (Ci, Cii and Ciii cyclised with TBMB, Bicyclic peptide) [BCY2231] | – | 1500 nM | –
28 | ACDDSLYCFLTGDCA (Ci, Cii and Ciii cyclised with TBMB, Bicyclic peptide) [BCY2305] | – | 240 nM | –
29 | ACDPDSLECWIFNQTCA (Ci, Cii and Ciii cyclised with TBMB, Bicyclic peptide) [BCY2230] | – | 633 nM | –
30 | ACPDDELYCFLTGQHCA (Ci, Cii and Ciii cyclised with TBMB, Bicyclic peptide) [BCY2269] | – | 78.7 nM | Ki [5]: 78.4 nM
31 | CPNELYCFVTGNC (Ci, Cii and Ciii cyclised with TBMB; N-terminal acetyl (Ac), Bicyclic peptide) [BCY2294] | – | 1030 nM | Ki [5]: 1020 nM
32 | CPNELYCFVTGAC (Ci, Cii and Ciii cyclised with TBMB; N-terminal acetyl (Ac), Bicyclic peptide) [BCY2304] | – | 366 nM | Ki [5]: 365 nM
33 | CANELYCFVTGNC (Ci, Cii and Ciii cyclised with TBMB; N-terminal acetyl (Ac), Bicyclic peptide) [BCY2295] | – | 694 nM | Ki [5]: 694 nM
34 | CPNELYCFVAGNC (Ci, Cii and Ciii cyclised with TBMB; N-terminal acetyl (Ac), Bicyclic peptide) [BCY2302] | – | 1920 nM | Ki [5]: 1880 nM
35 | CPNELACFVTGNC (Ci, Cii and Ciii cyclised with TBMB; N-terminal acetyl (Ac), Bicyclic peptide) [BCY2299] | – | 3350 nM | Ki [5]: 3350 nM
36 | ACAEDELYCFLTNHTCA (Ci, Cii and Ciii cyclised with TBMB, Bicyclic peptide) [BCY2268] | – | 188 nM | –
37 | ACDDDELYCFLTNQQCA (Ci, Cii and Ciii cyclised with TBMB, Bicyclic peptide) [BCY2267] | – | 118 nM | –
38 | ACATDPELCRFLNLDCA (Ci, Cii and Ciii cyclised with TBMB, Bicyclic peptide) [BCY2279] | – | 244 nM | –

Row | Molecule | Ki [1, 7] | Ki [3] | further results
39 | ACDTDPELCRFLNVDCA (Ci, Cii and Ciii cyclised with TBMB, Bicyclic peptide) [BCY2288] | – | 153 nM | –
40 | ACDTDPELCMFLNLDCA (Ci, Cii and Ciii cyclised with TBMB, Bicyclic peptide) [BCY2285] | – | 576 nM | –
41 | ACDHDPELCRFLNLDCA (Ci, Cii and Ciii cyclised with TBMB, Bicyclic peptide) [BCY2282] | – | 43.5 nM | –
42 | ACDTDPELCRFLRLDCA (Ci, Cii and Ciii cyclised with TBMB, Bicyclic peptide) [BCY2287] | – | 81.9 nM | –
43 | ACDTDPELCRFLNLKCA (Ci, Cii and Ciii cyclised with TBMB, Bicyclic peptide) [BCY2289] | – | 108 nM | –
44 | ACDGDPELCRFLNLDCA (Ci, Cii and Ciii cyclised with TBMB, Bicyclic peptide) [BCY2284] | – | 261 nM | –
45 | ACDADPELCRFLNLDCA (Ci, Cii and Ciii cyclised with TBMB, Bicyclic peptide) [BCY2283] | – | 88.5 nM | Ki [5]: 88.3 nM
46 | ACQTDPELCRFLNLDCA (Ci, Cii and Ciii cyclised with TBMB, Bicyclic peptide) [BCY2280] | – | 112 nM | –
47 | ACDTDPELCRFLNLPCA (Ci, Cii and Ciii cyclised with TBMB, Bicyclic peptide) [BCY2290] | – | 95.2 nM | –
48 | ACPDDELYCFLTGVPCA (Ci, Cii and Ciii cyclised with TBMB, Bicyclic peptide) [BCY2270] | – | 68.8 nM | Ki [4]: 38.7 nM; Ki [5]: 67.5 nM
49 | ACPDLELCEFLGLCA (Ci, Cii and Ciii cyclised with TBMB, Bicyclic peptide) [BCY2262] | – | 213 nM | –
50 | CYEDELCEFLGLC (Ci, Cii and Ciii cyclised with TBMB; N-terminal acetyl (Ac), Bicyclic peptide) [BCY2236] | – | 57.4 nM | Ki [5]: 56.3 nM
51 | CAEDELCEFLGLC (Ci, Cii and Ciii cyclised with TBMB; N-terminal acetyl (Ac), Bicyclic peptide) [BCY2237] | – | 110 nM | –
52 | CYEDALCEFLGLC (Ci, Cii and Ciii cyclised with TBMB; N-terminal acetyl (Ac), Bicyclic peptide) [BCY2241] | – | 278 nM | –
53 | CYSDELCEFLGLC (Ci, Cii and Ciii cyclised with TBMB; N-terminal acetyl (Ac), Bicyclic peptide) [BCY2238] | – | 62.9 nM | –
54 | CYEDELCEFLALC (Ci, Cii and Ciii cyclised with TBMB; N-terminal acetyl (Ac), Bicyclic peptide) [BCY2248] | – | 241 nM | Ki [4]: 60.6 nM
55 | CYEDELCEFLNLC (Ci, Cii and Ciii cyclised with TBMB; N-terminal acetyl (Ac), Bicyclic peptide) [BCY2250] | – | – | Ki [4]: 113 nM
56 | ACGTDPELCAFLGVDCA (Ci, Cii and Ciii cyclised with TBMB, Bicyclic peptide) [BCY2277] | – | 84.6 nM | Ki [5]: 84.4 nM
